Assay results: PMC7307925, “Human Serum Albumin Binding in a Vial: A Novel UV-pH Titration Method To Assist Drug Design” (Journal of Medicinal Chemistry, 2020)

Assay: UV-pH titration, pKa in aqueous medium (SiriusT3 fast UV pKa method)
Conditions: ionic strength adjusted water (0.15 M KCl), without HSA, Exp. aqueous pKa1 (pKa of monoprotic APIs), absence of HSA, ISA-water 0.15 M KCl, 25.0 °C

SMILES: COc1cc(Cc2cnc(N)nc2N)cc(OC)c1OC [Trimethoprim]
- pKa: 7.13 ± 0.01
